Values of other authors as cited in PubChem BioAssay AID1811.

Tests used:
Assay in all cases: PubChem AID 1811
trypsin beta = details: PDB complex binding affinities from literature; for Ki: Ki when reported; for Kd: Kd when reported
[1] = target: glutamate [nmda] receptor; details: PDB complex binding affinities from literature; Ki when reported
[2] = target: purine nucleoside phosphorylase; details: PDB complex binding affinities from literature; Ki when reported
transthyretin = details: PDB complex binding affinities from literature; Kd when reported
neuraminidase = details: PDB complex binding affinities from literature
[3] = target: orotidine 5'-monophosphate decarboxylase; details: PDB complex binding affinities from literature; Ki when reported
glutamate receptor 2 = details: PDB complex binding affinities from literature; IC50 when reported
[4] = target: calmodulin-sensitive adenylate cyclase; details: PDB complex binding affinities from literature
thrombin alpha = details: PDB complex binding affinities from literature; Ki when reported
glycogen phosphorylase b = details: PDB complex binding affinities from literature
penicillopepsin = details: PDB complex binding affinities from literature; Ki when reported
odorant-binding protein = details: PDB complex binding affinities from literature; for IC50: IC50 when reported
[5] = target: isopentenyl diphosphate delta-isomerase; details: PDB complex binding affinities from literature; IC50 when reported
carbonic anhydrase ii = details: PDB complex binding affinities from literature; Kd when reported
thymidylate synthase = details: PDB complex binding affinities from literature
phospholipase a2 = details: PDB complex binding affinities from literature
glycogen phosphorylase = details: PDB complex binding affinities from literature; for Ki: Ki when reported
arginase 1 = details: PDB complex binding affinities from literature; Ki when reported
diga16 = details: PDB complex binding affinities from literature; Kd when reported
[6] = target: aspartate aminotransferase; details: PDB complex binding affinities from literature; Kd when reported
acetylcholinesterase = details: PDB complex binding affinities from literature; Ki when reported
[7] = target: urokinase-type plasminogen activator; details: PDB complex binding affinities from literature; Ki when reported
[8] = target: oligo-peptide binding protein; details: PDB complex binding affinities from literature; Ki when reported
[9] = target: cell division protein kinase 2; details: PDB complex binding affinities from literature; IC50 when reported
[10] = target: nucleoside diphosphate kinase; details: PDB complex binding affinities from literature; Kd when reported

Q: With NCc1ccccc1 as the compound, how does the Ki (trypsin beta) read?
A: Its Ki is 1580 µM.

Q: Which Ki [1] does the source give for NC1(C(=O)O)CCC1 here?
A: Its Ki is 831 µM.

Q: Which Ki [2] does the source give for Nc1ncnc2c1ccn2[C@@H]1O[C@H](CO)[C@@H](O)[C@H]1O here?
A: The Ki was 120 µM.

Q: Which Kd (transthyretin) does the source give for Oc1c(Br)cc(Br)cc1Br here?
A: The Kd was 0.023 µM.

Q: For CCCN(CCc1ccccc1)C(=O)[C@@H]1OC(C(=O)O)=C[C@H](N)[C@H]1NC(C)=O, which IC50 (neuraminidase; IC50 when reported) is on record?
A: Its IC50 is 0.002 µM.

Q: With Cc1ccc(S(=O)(=O)N[C@@H](Cc2cccc(C(=N)N)c2)C(=O)N2CCCCC2)cc1 as the compound, how does the Ki (trypsin beta) read?
A: Its Ki is 1.2 µM.

Q: With O=C1CC(=O)N([C@@H]2O[C@H](COP(=O)(O)O)[C@@H](O)[C@H]2O)C(=O)N1 as the compound, how does the Ki [3] read?
A: Its Ki is 8.8 pM.

Q: With CC(C)(C)c1o[nH]c(=O)c1C[C@H](N)C(=O)O as the compound, how does the IC50 (glutamate receptor 2) read?
A: The IC50 was 3.5 µM.

Q: For Nc1ncnc2c1ncn2[C@@H]1O[C@H](COP(=O)(O)OP(=O)(O)OP(=O)(O)O)C[C@H]1O, which Kd ([4]; Kd when reported) is on record?
A: Its Kd is 130 µM.

Q: With Cc1ccc(S(=O)(=O)N[C@@H](Cc2ccc(C(=N)N)cc2)C(=O)N2CCCCC2)cc1 as the compound, how does the Ki (thrombin alpha) read?
A: Its Ki is 1.3 µM.

Q: Which Kd (glycogen phosphorylase b; Kd when reported) does the source give for O=P(O)(O)OC[C@H]1O[C@H](O)[C@H](O)[C@@H](O)[C@@H]1O here?
A: The Kd was 20 µM.

Q: With CC(=O)N1CCN(C(=O)[C@H](Cc2cccc(C(=N)N)c2)NS(=O)(=O)c2ccc3ccccc3c2)CC1 as the compound, how does the Kd (trypsin beta) read?
A: Its Kd is 0.04 µM.

Q: Which Ki (penicillopepsin) does the source give for COC(=O)[C@H](Cc1ccccc1)OP(=O)(O)[C@H](CC(C)C)NC(=O)[C@@H](NC(=O)[C@@H](NC(=O)CC(C)C)C(C)C)C(C)C here?
A: Its Ki is 0.0028 µM.

Q: With Cc1ccc(C(C)C)c(O)c1 as the compound, how does the IC50 (odorant-binding protein) read?
A: The IC50 was 2.5 µM.

Q: For N=C(N)c1cccc(C[C@H](NS(=O)(=O)c2ccc3ccccc3c2)C(=O)N2CCNCC2)c1, which Kd (trypsin beta) is on record?
A: Its Kd is 0.125 µM.

Q: With C/C(=C\COP(=O)(O)OP(=O)(O)O)CO as the compound, how does the IC50 [5] read?
A: The IC50 was 50 µM.

Q: With NS(=O)(=O)c1ccc(CCNC(=S)Nc2ccc(-c3c4ccc(=O)cc-4oc4cc(O)ccc34)c(C(=O)O)c2)cc1 as the compound, how does the Kd (carbonic anhydrase ii) read?
A: The Kd was 0.00064 µM.

Q: With NC1(C(=O)O)CCCC1 as the compound, how does the Ki [1] read?
A: Its Ki is 15300 µM.

Q: For Cc1cn([C@H]2C[C@H](O)[C@@H](COP(=O)(O)O)O2)c(=O)[nH]c1=O, which Kd (thymidylate synthase; Kd when reported) is on record?
A: Its Kd is 3.27 µM.

Q: Which Ki (glycogen phosphorylase b; Ki when reported) does the source give for O=C1NC(=O)[C@@]2(N1)O[C@H](CO)[C@@H](O)[C@H](O)[C@H]2O here?
A: The Ki was 3 µM.

Q: For FC(F)(CNc1nccc2oc(Cc3ccccc3-n3cncn3)nc12)[C@H]1CCCCN1, which Ki (thrombin alpha) is on record?
A: Its Ki is 4.6 µM.

Q: With CCCC[C@H]1C(=O)N(c2ccccc2)N(c2ccc(O)cc2)C1=O as the compound, how does the Kd (phospholipase a2; Kd when reported) read?
A: Its Kd is 0.064 µM.

Q: Which Ki (phospholipase a2; Ki when reported) does the source give for COc1ccc(C(=O)O)cc1 here?
A: Its Ki is 18 µM.

Q: For OC[C@H]1O[C@@H]2O[C@H]3[C@H](O)[C@@H](O)[C@@H](O[C@H]4[C@H](O)[C@@H](O)[C@@H](O[C@H]5[C@H](O)[C@@H](O)[C@@H](O[C@H]6[C@H](O)[C@@H](O)[C@@H](O[C@H]7[C@H](O)[C@@H](O)[C@@H](O[C@H]8[C@H](O)[C@@H](O)[C@@H](O[C@H]9[C@H](O)[C@@H](O)[C@@H](O[C@H]1[C@H](O)[C@H]2O)O[C@@H]9CO)O[C@@H]8CO)O[C@@H]7CO)O[C@@H]6CO)O[C@@H]5CO)O[C@@H]4CO)O[C@@H]3CO, which Ki (glycogen phosphorylase) is on record?
A: Its Ki is 7400 µM.

Q: For CCCCC[C@H](O)CC, which Kd (odorant-binding protein; Kd when reported) is on record?
A: Its Kd is 3.3 µM.

Q: For CC(=O)NC(=O)N[C@@H]1O[C@H](CO)[C@@H](O)[C@H](O)[C@H]1O, which Ki (glycogen phosphorylase) is on record?
A: The Ki was 370 µM.

Q: Which Ki (arginase 1) does the source give for NC(=NCCC[C@H](N)C(=O)O)NO here?
A: Its Ki is 10 µM.

Q: Which Ki (penicillopepsin) does the source give for CNC(=O)C(F)(F)C(O)(O)[C@H](CC(C)C)NC(=O)[C@@H](NC(=O)[C@@H](NC(=O)CC(C)C)C(C)C)C(C)C here?
A: Its Ki is 0.001 µM.

Q: With C[C@]12CC[C@H](O)C[C@H]1CC[C@@H]1[C@@H]2CC[C@]2(C)[C@@H](C3=CC(=O)OC3)CC[C@]12O as the compound, how does the Kd (diga16) read?
A: Its Kd is 0.002 µM.

Q: With O=C(O)c1ccccc1Nc1cccc(C(F)(F)F)c1 as the compound, how does the Kd (transthyretin) read?
A: The Kd was 0.03 µM.

Q: For Cn1nnc(-c2o[nH]c(=O)c2C[C@H](N)C(=O)O)n1, which IC50 (glutamate receptor 2) is on record?
A: The IC50 was 0.0097 µM.

Q: With O=C(O)CCNC(=O)[C@H]1CCCN1S(=O)(=O)c1ccc(C(=O)N[C@@H](CCC(=O)O)C(=O)O)cc1 as the compound, how does the Ki (thymidylate synthase; Ki when reported) read?
A: Its Ki is 0.33 µM.

Q: Which Ki (thrombin alpha) does the source give for N=C(N)N1CCC[C@H](C(=O)NC[C@@H]2CCCN2C(=O)[C@H](CO)NS(=O)(=O)c2ccc3ccccc3c2)C1 here?
A: The Ki was 0.0036 µM.

Q: Which Ki (penicillopepsin) does the source give for COC(=O)[C@H](Cc1ccccc1)OP(=O)(O)[C@H](CC(C)C)NC(=O)[C@H](C)NC(=O)[C@H](C)NC(=O)OCc1ccccc1 here?
A: The Ki was 1.6 µM.

Q: For O=C(O)CCC(=O)O, which Kd [6] is on record?
A: Its Kd is 2400 µM.

Q: For CC1=C[C@H]2Cc3[nH]c(=O)ccc3[C@]3(C1)NCCC[C@H]23, which Ki (acetylcholinesterase) is on record?
A: Its Ki is 0.334 µM.

Q: With CCOC(=O)CP(=O)(O)[C@H](CC(C)C)NC(=O)[C@@H](NC(=O)[C@@H](NC(=O)CC(C)C)C(C)C)C(C)C as the compound, how does the Ki (penicillopepsin) read?
A: Its Ki is 0.022 µM.

Q: Which IC50 (odorant-binding protein) does the source give for O=C(c1ccccc1)c1ccccc1 here?
A: The IC50 was 3.6 µM.

Q: Which Kd (glycogen phosphorylase; Kd when reported) does the source give for O=c1[nH]c(=O)c2[nH]c(=O)[nH]c2[nH]1 here?
A: The Kd was 550 µM.

Q: For N=C(N)c1ccc(CNC(=O)[C@H](CO)NC(=O)[C@@H](CO)NS(=O)(=O)Cc2ccccc2)cc1, which Ki [7] is on record?
A: Its Ki is 0.02 µM.

Q: With NCCCC[C@H](NC(=O)[C@@H](N)CCCCN)C(=O)O as the compound, how does the Ki [8] read?
A: Its Ki is 125 µM.

Q: Which Kd (trypsin beta) does the source give for N=C(N)c1cccc(C[C@H](NS(=O)(=O)c2ccc3ccccc3c2)C(=O)N2CCCC[C@@H]2C(=O)O)c1 here?
A: Its Kd is 0.264 µM.

Q: With CC(C)[C@H](N)C(=O)O as the compound, how does the Ki (arginase 1) read?
A: Its Ki is 3600 µM.

Q: For Nc1ncnc2c1ncn2CCOCP(=O)(O)OP(=O)(O)OP(=O)(O)O, which Ki ([4]; Ki when reported) is on record?
A: Its Ki is 0.027 µM.

Q: Which IC50 [9] does the source give for CNS(=O)(=O)c1ccc(N=Cc2c(O)[nH]c3ccccc23)cc1 here?
A: Its IC50 is 0.56 µM.

Q: Which Ki (neuraminidase; Ki when reported) does the source give for CC(=O)N[C@H]1[C@H]([C@H](O)[C@H](O)CO)OC(C(=O)O)=C[C@@H]1N here?
A: The Ki was 0.04 µM.

Q: Which Kd [10] does the source give for Nc1ncnc2c1ncn2[C@@H]1O[C@H](COP(=O)(O)OS(=O)(=O)O)[C@@H](OP(=O)(O)O)[C@H]1O here?
A: The Kd was 14 µM.
